{"source": "paper PMC8657033", "origin": "cited, not measured here", "biological_target": "Mesothelin (Homo sapiens) (UniProt Q13421)", "details": "cited from earlier work", "data": [{"substance": "Amatuximab", "values": [{"measurement": "Kd", "value": 1.5, "unit": "nM"}]}]}
